EC50 of increase of intracellular cAMP in PC12 cells, Log EC50 of increase of intracellular cAMP in PC12 cells and maximum of increased cAMP (Emax) in PC12 cells (pmol/100 µg (protein)) data for 1 substance are collected here from patent US20120196795A1.

Where two headings read alike, the source gives them in different places.

Holding throughout (assay): cell-based or functional assay
For assay [1], the target named is GLP-1 receptor (UniProt P32301).
Assay [2] has the same target. This is another data set of the same source.
Assay [3] shares this target. The source holds these as a separate data set.

Consider “PB-105 (Exendin-4, Cys substituted at position 39) (peptide)”, for which the EC50 of increase of intracellular cAMP in PC12 cells in assay [1] turned out to be 2.7 nM; in assay [2] it was 2.5 nM; in assay [3] it was 1.3 nM. In assay [2], this substance had a Log EC50 of increase of intracellular cAMP in PC12 cells of -8.61 log M. Further, the maximum of increased cAMP (Emax) in PC12 cells (pmol/100 µg (protein)) in assay [2] was determined as 129; in assay [3] it was 104.
